{
  "source": "patent US20260182580A1",
  "about": "“ANTIMICROBIAL COATING COMPOSITION AND METHOD OF PRODUCING ANTIMICROBIAL PRODUCT USING THE SAME” (published 2026)",
  "assay": "Dissolution of silver salt in solvent when preparing the antimicrobial agent",
  "details": "in most solvents",
  "data": [
    {"substance": "silver perchlorate", "values": [
      {"measurement": "time to dissolve", "value": "≤ 1", "unit": "min"}
    ]}
  ]
}
